Earlier results on one compound are cited in patent publication CN104546722A, “米铂脂质体和制法” (priority 2015, dated 2015).

The data set has as its system hepatocellular carcinoma patients (肝细胞癌患者). To be noted: human, in vivo.

On to `CCCCCCCCCCCCCC(=O)[O-].CCCCCCCCCCCCCC(=O)[O-].N[C@@H]1CCCC[C@H]1N.O.[Pt+2]` [米铂一水合物, (SP-4-2)-[(1R,2R)-1,2环己二氨-N,N′]二(十四酸-O)合铂一水合物], for which the adverse reactions entry is given as “程度较轻,可控且在耐受范围”.
